Experimental data reported in patent EP4717267A1, “SYNERGISTIC COMBINATION FOR TREATING CANCER” (FUNDACION UNIVERSITARIA SAN ANTONIO (UCAM), priority 2023, dated 2024).

Assays:
MCF-7 cells = experiment: MTT colorimetric cytotoxicity assay on MCF-7 cells, single drugs and two-drug combinations, with combination index (CompuSyn); assay type: cell-based, Human
Description: IC50 values were calculated using GraphPad Prism software.
This equation defines "Synergism" (CI < 1), "Additive effect" (CI = 1) and "Antagonism" (CI > 1).

A549 cells = experiment: MTT colorimetric cytotoxicity assay on A549 cells, single drugs and two-drug combinations, with combination index (CompuSyn); assay type: cell-based, Human; conditions: 0.58 µM Doxorubicin alone

## COc1cccc2c1C(=O)c1c(O)c3c(c(O)c1C2=O)C[C@@](O)(C(=O)CO)C[C@@H]3O[C@H]1C[C@H](N)[C@H](O)[C@H](C)O1 [Doxorubicin, (7S,9S)-7-[(2R,4S,5S,6S)-4-amino-5-hydroxy-6 methyloxan-2-yl]oxy-6,9,11-trihydroxy-9-(2-hydroxyacetyl)-4-methoxy-8,10-dihydro-7H tetracene-5,12-dione]
MCF-7 cells; 0.225 µM Doxorubicin alone, MCF-7
  reduction in cancer cell survival: 23.1%
MCF-7 cells; Doxorubicin alone at the highest dose tested (5.0 µM)
  MCF-7 cell survival: 31.9%
A549 cells
  cancer cell survival: 27.0%
